Data taken from PubChem BioAssay AID720647 (Broad Institute, 2013).
Only a part is listed here, and it is no random draw. Some of these compounds have results that are not shown, active ones among them. Calls of active or inactive are those of the source.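 Rule for the calls: active = drop in luminescence signal, shown as inhibition above about 50% in the replicate tests (limit read from the data, passing the limit was not always enough); inconclusive = probably only some replicates passing the limit; inactive = the rest.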

Each compound was assayed on Drosophila bursicon receptor LGR2 (rickets) (assay: inhibitors of bursicon-induced LGR2 CRE-luciferase signal, primary screen, cell-based, HEK293, CRE-luciferase reporter, bursicon stimulation (AID 720647;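 note: agonist challenge used bursicon conditioned medium at about half maximal strength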)). Settings: bursicon-stimulated, 4 h, at 9.99 µM, hits give high values.

| Structure (SMILES) | inhibition |
| --- | --- |
| CC(C)N1C(=O)CC2(CCN(CCOC(=O)C(O)(c3ccccc3)c3ccccc3)CC2)C1=O | inactive: -12.5% |
| CCN(CC)CC(C)C(C)OC(=O)C(O)(c1ccccc1)c1ccccc1 (stereo not drawn) | inactive: 14.7% |
| COc1cc(SC)ccc1C(=O)NCC1(N(C)C)CCCCC1 | inactive: 0.373% |
| Cc1ccc(C(=O)NCC2(N3CCCCC3)CCCCC2)cc1 | inactive: -3.85% |
| O=C(NCC1(N2CCCCC2)CCCCC1)c1cc([N+](=O)[O-])ccc1Cl | inactive: -10.5% |
| CN1[C@@H]2CC[C@H]1CC(OC(=O)C(O)(c1ccccc1)c1ccccc1)C2 (stereo partly drawn) | inactive: 14.6% |
| C=CCN1CCN(CCOC(=O)C(O)(c2ccccc2)c2ccccc2)CC1 | inactive: 10.5% |
| O=C(NCC1(N2CCCCC2)CCCCC1)c1cc(F)c(F)cc1Cl | inactive: 12.3% |
| CCN1CCCC(OC(=O)C2(O)c3ccccc3C=Cc3ccccc32)C1 (stereo not drawn) | inactive: -12% |
| Cc1cc(C(=O)NCC2(N3CCCCC3)CCCCC2)ccc1[N+](=O)[O-] | inactive: -2.32% |
| O=C(NCC1(N2CCCCC2)CCCCC1)c1cccc(Br)c1 | inactive: 1.59% |
| COc1ccc(C(=O)NCC2(N(C)C)CCCCC2)cc1 | inactive: -4.5% |
| Cc1ccccc1C(=O)NCC1(N2CCCCC2)CCCCC1 | inactive: 11.4% |
| CN(C)c1ccc(C(=O)NCC2(N(C)C)CCCCC2)cc1 | inactive: -25.5% |
| CN(C)C1CCCC1OC(=O)C(O)(c1ccccc1)c1ccccc1 (stereo not drawn) | inactive: -6.92% |
| COc1cccc(C(=O)NCC2(N3CCCCC3)CCCCC2)c1 | inactive: 8.3% |
| COc1ccc(Cl)cc1C(=O)NCC1(N(C)C)CCCCC1 | inactive: -5.88% |
| O=C(NCC1(N2CCCCC2)CCCCC1)c1cccc(Cl)c1 | inactive: 14% |
| CN(C)C1(CNC(=O)c2ccc(Br)cc2)CCCCC1 | inactive: 9.08% |
| COc1cc(C(=O)NCC2(N(C)C)CCCCC2)c([N+](=O)[O-])cc1OC | inactive: -3.32% |
| COc1ccc(Br)c(C(=O)NCC2(N3CCCCC3)CCCCC2)c1 | inactive: 7.47% |
| CC(C)Oc1ccc(C(=O)NCC2(N(C)C)CCCCC2)cc1 | inactive: -3.43% |
| O=C(OCCN1CCCC1)C(O)(c1ccccc1)c1ccccc1 | inactive: -0.955% |
